Measurements published in article PMC5814754, “Quantitative, Wide-Spectrum Kinase Profiling in Live Cells for Assessing the Effect of Cellular ATP on Target Engagement” (Cell Chemical Biology, 2018).
Where “and” joins values, the source holds several entries; their conditions need not be identical. Equal entries are not always repeated.

Amino acid sequences for entries named in this document (tags omitted).
UniProt Q13546, whole entry: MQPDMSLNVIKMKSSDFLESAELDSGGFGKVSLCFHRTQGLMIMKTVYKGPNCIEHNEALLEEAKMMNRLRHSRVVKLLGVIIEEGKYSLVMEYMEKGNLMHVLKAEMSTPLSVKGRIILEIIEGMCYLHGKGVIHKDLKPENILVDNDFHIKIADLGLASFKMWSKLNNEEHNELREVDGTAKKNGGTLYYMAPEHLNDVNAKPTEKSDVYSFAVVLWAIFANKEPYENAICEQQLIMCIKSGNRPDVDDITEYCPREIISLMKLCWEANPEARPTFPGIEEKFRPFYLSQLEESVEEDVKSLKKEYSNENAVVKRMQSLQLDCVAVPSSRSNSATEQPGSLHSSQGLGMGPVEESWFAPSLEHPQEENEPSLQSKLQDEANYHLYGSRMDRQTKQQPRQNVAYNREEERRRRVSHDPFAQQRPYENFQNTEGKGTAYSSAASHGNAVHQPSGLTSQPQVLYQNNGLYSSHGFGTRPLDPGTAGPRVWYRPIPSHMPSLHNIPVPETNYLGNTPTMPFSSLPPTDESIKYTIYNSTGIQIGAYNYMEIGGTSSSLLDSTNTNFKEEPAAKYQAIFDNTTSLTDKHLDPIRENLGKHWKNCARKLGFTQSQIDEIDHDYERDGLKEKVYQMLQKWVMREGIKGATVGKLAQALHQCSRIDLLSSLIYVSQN

Molecular target: RIPK1 (Homo sapiens, UniProt Q13546)

IC50: 73.1 nM and 107 nM
SMILES: CN1C(=O)C(Cc2c[nH]c3ccccc23)NC1=S (stereo not shown)
